Test results taken from ChEMBL document CHEMBL5584234, “Small molecules that regulate the N6-methyladenosine RNA modification as potential anti-cancer agents” (Eur J Med Chem, 2024).

Molecular target: Alpha-ketoglutarate-dependent dioxygenase FTO (Homo sapiens, UniProt Q9C0B1)

O=C(O)c1ccccc1-c1c2cc(F)c(=O)cc-2oc2cc(O)c(F)cc12
IC50: 1430 nM
